In patent US20160340659A1 (YISSUM RESEARCH AND DEVELOPMENT COMPANY OF THE HEBREW …, published 2016):

Tests used:
[1] = target: T1, G-Actin from rabbit muscle (rabbit, UniProt P68135 3-377); test: solid-phase ELISA: peptide added to immobilized rabbit muscle G-actin (500 ng/well), detected with rabbit anti-rhtrRNASET2 and peroxidase goat anti-rabbit IgG, A650
[2] = target: T1, G-Actin from rabbit muscle; test: as above; remark: listed apart in the source
[3] = target: T1, G-Actin from rabbit muscle; test: solid-phase ELISA, immobilized rabbit G-actin

ALNSQKKYFGRSLELYR [HUMAN A103-R119]
binding result [1]: no binding

KKYFGRSLELYRELDLNSVL [HUMAN K108-L127]
binding result [2]: no binding

KKYFGRSLELYRELDLNSVLL [HUMAN K108-L128]
binding result [2]: no binding

KKYFGRSLELYRELDLNSVLLK [HUMAN K108-K129]
binding result [2]: no binding

KKYFGRSLELYRELDLNSVLLKL [HUMAN K108-L130]
binding result [2]: no binding

B1: HUMAN K108-E120, N124-K133 (peptide)
peptide: KKYFGRSLELYRENSVLLKLGIK
notes: K108-K133 without the three residues L121, D122, L123
binding result [2]: no binding

GRSLELYRELDLNSVLLKLGIK [HUMAN G112-K133]
binding result [2]: no binding

RSLELYRELDLNSVLLKLGIK [HUMAN R113-K133]
binding result [2]: no binding

SLELYRELDLNSVLLKLGIK [HUMAN S114-K133]
binding result [2]: no binding

KKYFGRSLELYRE [HUMAN K108-E120]
binding result [1]: no binding

KKYFGRSLELYREL [HUMAN K108-L121]
binding result [1]: no binding

KKYFGRSLELYRELD [HUMAN K108-D122]
binding result [1]: no binding

KKYFGRSLELYRELDL (also called K108-L123 (16 aa)) [peptide K108-L123]
binding result [2]: no binding

KKYFGRSLELYRELDLN [HUMAN K108-N124]
binding result [2]: no binding

KKYFGRSLELYRELDLNS [HUMAN K108-S125]
binding result [2]: no binding

KKYFGRSLELYRELDLNSV [HUMAN K108-V126]
binding result [2]: no binding

ELDLNSVLLKLGIKPSINYYQV (also called E120-V141) [SEQ ID NO 58 (amino acids 120-141 of native human RNASET2)]
binding result [3]: no binding

SINYYQV [SEQ ID NO 59 (C-terminal portion of SEQ ID NO: 58)]
binding result [3]: no binding
